Legend:
[1] = Checking of vaporization of antibacterial agent during preparation (kneading) of hot-melt adhesive
Protocol: A method for producing a hot-melt adhesive in accordance with an embodiment of the present invention includes a step of kneading an antibacterial agent having a paraben structure and having a 10% weight loss temperature of not lower than 200°C in thermogravimetric measurement and a composition containing a base polymer and a tackifier, while maintaining a temperature of not higher than 140°C. […] Kneading the antibacterial agent having a paraben structure and the composition containing the base polymer and the tackifier while maintaining a temperature of not higher than 140°C is preferable because vaporization of the antibacterial agent having a paraben structure during kneading can be prevented. […]
In a case where deposits were present on the top plate of the container, the deposits were collected, and an FT-IR spectrum was measured. A case where an absorption peak derived from the antibacterial agent was detected in the FT-IR spectrum was determined as the "presence" of vaporization, and a case where an absorption peak derived from the antibacterial agent was not detected was determined as the "absence" of vaporization.

[2] = Thermogravimetric (TG) measurement, 10% weight loss temperature; settings: temperature increased at 10°C/min
Protocol: Here, the 10% weight loss temperature in TG measurement means a temperature at a time point at which, in TG measurement when the temperature of the antibacterial agent having a paraben structure is increased at 10°C/min, the weight has decreased by 10% by weight relative to the weight before the temperature increase (that is, the weight of the antibacterial agent having a paraben structure has become 90% relative to the weight before the temperature increase). Hereinafter, in the present specification, the 10% weight loss temperature in TG measurement may be referred to as "T10".

## CCCCCCOC(=O)c1ccc(O)cc1
[1]; kneaded at 140°C
  Vaporization of antibacterial agent during kneading: vaporization was not observed
[1]; kneaded at 160°C for 1 hour
  Vaporization of antibacterial agent during kneading: vaporization was observed
[2]
  T10 (10% weight loss temperature in TG measurement): T10: 210.3 °C

## CCCCC(CC)COC(=O)c1ccc(O)cc1 (stereo not drawn)
[2]
  T10 (10% weight loss temperature in TG measurement): T10: 208.6 °C

## CCCCCCCCCCCCCCCCOC(=O)c1ccc(O)cc1
[2]
  T10 (10% weight loss temperature in TG measurement): T10: 271.0 °C

## O=C(OCc1ccccc1)c1ccc(O)cc1
[2]
  T10 (10% weight loss temperature in TG measurement): T10: 238.2 °C

— patent EP4840921A1, “HOT MELT ADHESIVE, METHOD FOR PRODUCING SAME, AND COATING METHOD” (dated 2026)
